Results published in US20100029652A1, “Combination Therapy For Treating Hepatitis C Infections” (ACHILLION PHARMACEUTICALS, INC., priority 2007, published 2010).

Experiments:
[1] = tested on: HCV replicon in Huh-9-13 cells; test: Long term combination study: replicon curing assay, colony formation after G418 selection; assay type: cell-based, hepatitis C virus; conditions: approximately 5×EC50
Experimental: In other repetitions of this experiment, treatment time varied from 7 to 10 days. Cells were passaged once every 3 days into new plates at the same density (10^5 cells/plate) and with fresh compounds. No G418 was present during the 9 day treatment. On day 10, the cells were passaged again to new plates at a density of 10^5 cells/plate, respectively, and were treated only with G418 for approximately 3 more weeks. […] During the 2˜3 weeks, the old media were replaced with fresh media twice a week. The colonies were fixed with 10% formaldehyde and stained with 2% crystal violet in 20% ethanol.
In this assay, the number of the cells in which the replicons still remained after the 9-day treatment was quantified based on the number of the colonies formed after G418 selection.

[2] = tested on: HCV replicon (subtype 1b, Con-1) in Huh-luc/neo cells; test: Short term combination study: HCV replicon luciferase assay in Huh-luc/neo cells, 3-days treatment; assay type: cell-based, hepatitis C virus
[3] = in combination with ACH-806, 9-day treatment
[4] = combined with ACH-806, molar ratio 1:10, Chou and Talalay
[5] = combined with ACH-806, molar ratio 1:20, Chou and Talalay
[6] = drug combined with ACH-806, Prichard and Shipman model

## IFN: IFN-alpha-2b (INTRON A, Schering), recombinant interferon alfa 2b, purchased
[1]; [3]
  log reduction of replicon-containing cells: 4 log
  replicon-containing cells cured: ~99.99%
[1]; single agent by itself, 9-day treatment
  replicon-containing cells cured: about 90%
[2]; [4]
  CI (SD) at Replicon inhibition of 50%: 1.12 (0.08)
  CI (SD) at Replicon inhibition of 75%: 0.93 (0.15)
  CI (SD) at Replicon inhibition of 90%: 0.81 (0.17)
[2]; [5]
  CI (SD) at Replicon inhibition of 50%: 1.04 (0.05)
  CI (SD) at Replicon inhibition of 75%: 0.85 (0.09)
  CI (SD) at Replicon inhibition of 90%: 0.73 (0.10)
[2]; drug combined with ACH-806
  Overall combinatory antiviral activity: Additive
[2]; [6]
  Volume (SD) Antagonism: 5 (3) μM^2%
  Volume (SD) Synergy: 4 (5) μM^2%
